System: HEK293 cells transfected with vector control (pcDNA1.1)
Assay: Luciferase reporter assay in cells transfected with vector control
Assay type: cell-based, human
Settings: cells transfected with pcDNA1.1 vector control

## CCCCCCCCCCCCCCCC(=O)NCCOCCOCCOCCOCCOCCOCCOCCOCCC(=O)N[C@@H](CCCCN)C(=O)NCC(=O)NCC(=O)N[C@@H](Cc1ccc(O)cc1)C(=O)N[C@@H](Cc1ccccc1)C(=O)N1CCC[C@H]1C(=O)NCC(=O)N[C@@H](CCC(N)=O)C(=O)N[C@@H](Cc1ccccc1)C(=O)N[C@@H](C)C(=O)N[C@@H](Cc1ccccc1)C(=O)N[C@@H](CO)C(=O)O [I-Chem 149-157]
  Agonist activity without CMKLR1 expression: no agonist activity
